Test results: ChEMBL document CHEMBL3779872, “Discovery and Characterization of 2-Aminooxazolines as Highly Potent, Selective, and Orally Active TAAR1 Agonists” (ACS Med Chem Lett, 2016)

Experiments:
[1] = molecular target: T1, Trace amine-associated receptor 1 (Homo sapiens) (UniProt Q96RJ0); assay: Agonist activity at human TAAR1 expressed in recombinant HEK293 cells assessed as cAMP accumulation after 30 mins by luminometer relative to phenethylamine; assay type: functional, cell-based
T1 sequence (whole entry): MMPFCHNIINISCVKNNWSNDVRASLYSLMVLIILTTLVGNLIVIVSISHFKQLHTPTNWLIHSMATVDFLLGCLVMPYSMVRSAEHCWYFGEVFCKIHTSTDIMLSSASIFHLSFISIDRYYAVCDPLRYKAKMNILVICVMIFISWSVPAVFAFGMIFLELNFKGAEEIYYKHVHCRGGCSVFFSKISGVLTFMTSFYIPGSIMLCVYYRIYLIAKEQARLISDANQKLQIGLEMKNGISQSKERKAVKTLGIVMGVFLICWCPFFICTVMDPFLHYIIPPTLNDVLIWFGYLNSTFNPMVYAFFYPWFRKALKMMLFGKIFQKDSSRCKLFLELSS

HEK293 = assay: Selectivity ratio of EC50 for human adrenergic alpha 2A receptor expressed in CHL cells to EC50 for human TAAR1 expressed in recombinant HEK293 cells; assay type: cell-based

NC1=N[C@@H](c2ccc(Cl)c(Cl)c2)CO1 showed an Emax [1] of 72% and a Ratio EC50 (HEK293) of 94.
